From ChEMBL document CHEMBL5331049, “Structure-based discovery of 1-(3-fluoro-5-(5-(3-(methylsulfonyl)phenyl)-1H-pyrazolo[3,4-b]pyridin-3-yl)phenyl)-3-(pyrimidin-5-yl)urea as a potent and selective nanomolar type-II PLK4 inhibitor” (Eur J Med Chem, 2022)

Assay: Half life in human liver microsomes at 100 uM by LC-MS/MS analysis
Type: ADME, Microsome

half-life at 100 µM: 5.9 min
SMILES: O=C(O)Cc1ccccc1Nc1c(Cl)cccc1Cl [DICLOFENAC]
